Read-outs that look alike come from different tables or passages of the source.
Experiments:
HL-60 cells = test: alamarBlue proliferation assay with HL-60 cells; conditions: read-out: Activity on HL-60: IC50, RPMI 1640 medium, 10% FBS
Excerpt: (§1) These hyperproliferative processes can be benign or malignant and include hyperplasia, neoplasia, cancer and pre-cancerous lesions, and metastases. The antiproliferative activities of compounds falling under general formula (I) were investigated on human primary epidermal keratinocytes (HPEK) and human, murine and canine cell lines derived from hyperproliferative tissue or different cancer types, including MDA-MB-231, ZR-75-30, HCC-1395, HCC-1937, and T-47D all originating from cancer of the breast, JURKAT, RPMI-8402, LOUCY, TANQUE, REC-1, HL-60, NB-4 all originating from different types of blood cancer including lymphoma and leukemia of T-cells, B-cells and myeloid cells, TT originating from cancer of the neuroendocrine system, HeLa originating from cancer of the cervix, 23132/87, SW-948, and HCT-116 all originating from cancer of the gastrointestinal tract including stomach and colon, BHY originating from cancer of the mucosal epithelium, A-431 originating from cancer of the skin, HEP-G2 originating from cancer of the liver, NCI-H460 and A-549 both originating from cancer of the lung, PANC-1 originating from cancer of the pancreas, U-87 MG originating from cancer of the brain, A-375 and RVH-421 both originating from cancer of melanocytes, SW-1353 originating from cancer of bone-derived chondrocytes, C2C12 a mouse cell line originating from hyperproliferative muscle progenitor cells, LL/2 a mouse cell line originating from cancer of the lung, CF21.T a dog cell line originating from cancer of the connective tissue. To this end, according cells were seeded into 96-well plates (CORNING #3598) suitable for fluorescence assays at following initial cell numbers: 1000 cells per well for HPEK; 3000 cells per well for MDA-MB-231, 8000 cells per well for ZR-75-30, 1500 cells per well for HCC-1395, 1500 cells per well for HCC-1937, 3000 cells per well for T-47D, 1500 cells per well for JURKAT, 5000 cells per well for RPMI-8402, 9000 cells per well for LOUCY, 1500 cells per well for TANQUE, 9000 cells per well for REC-1, 1000 cells per well for HL-60, 1000 cells per well for NB-4, 9000 cells per well for TT, 2000 cells per well for HeLa, 2000 cells per well for 23132/87, 9000 cells per well for SW-948, 700 cells per well for HCT-116, 1500 cells per well for BHY, 700 cells per well for A-431, 1500 cells per well for HEP-G2, 500 cells per well for NCI-H460, 1000 cells per well for A-549, 1500 cells per well for PANC-1, 2500 cells per well for U-87 MG, 700 cells per well for A-375, 1500 cells per well for RVH-421, 2000 cells per well for SW-1353, 500 cells per well for C2C12, 500 cells per well for LL/2, and 3000 cells per well for CF21.T. In a volume of 90 μL per well of culture medium the cells were treated with compounds at indicated final concentrations by adding 10 μL per well of 10× compound working solutions from 1:100 pre-diluted 1000× compound DMSO stock-solutions in H2O (Water For Injection, WFI, Fisher Scientific, Gibco™ #A12873) or with the empty carrier DMSO (AppliChem, #A3672) at 0.1% v/v as control yielding a final volume of 100 μL per well. At day 5 after starting the treatments the cells were subjected to the alamarBlue® Proliferation Assay (Bio-Rad Serotec GmbH, BUF012B) according to the protocol of the manufacturer. The readout was taken with a multi-well plate-reader (Tecan Spark®) in the fluorescence mode with applying a filter for excitation at 560 nm (band width 10 nm) and for emission at 590 nm (band width 10 nm). Treatment for maximum proliferation inhibition with the commercial cytotoxic compound (S)-(+)-camptothecin (Fluorochem #M01564) at a concentration of 10 μM was included on each plate for assay quality control. Some of the test compounds of the present invention may have been obtained and applied as their salt forms.
(§2) The assays were performed in duplicate or more replicates of independent single experiments each containing a three- to six-fold replicate for every condition. […]

JURKAT cells = test: alamarBlue proliferation assay with JURKAT cells; conditions: read-out: Activity on JURKAT (IC50), day 5
Excerpt: as §1, §2

MDA-MB-231 cells = test: alamarBlue proliferation assay with MDA-MB-231 cells (glucose-free Leibovitz's L-15 medium)
NCI-H460 cells = test: alamarBlue proliferation assay with NCI-H460 cells; conditions: read-out: Activity on NCI-H460: IC50, RPMI 1640 medium, 10% FBS
RVH-421 cells = test: alamarBlue proliferation assay with RVH-421 cells (glucose-free L-15 medium); conditions: read-out: Activity on RVH-421: IC50, Leibovitz's L-15 medium, 10% FBS, 0% CO2
Excerpt: as §1, §2

SW-948 cells = test: alamarBlue proliferation assay with SW-948 cells (glucose-free L-15 medium); conditions: read-out: Activity on SW-948: IC50, Leibovitz's L-15 medium, 10% FBS, 0% CO2
Excerpt: as §1, §2

HCT-116 cells = test: alamarBlue proliferation assay with HCT-116 cells; conditions: read-out: Activity on HCT-116: IC50, McCoy's 5A medium, 10% FBS
[1] = tested on: mitochondrial transmembrane potential Δψm in A-549 cells; test: mitochondrial activity assay (TMRE staining, mitochondrial transmembrane potential) on A-549 cells; conditions: A-549 cells, compounds at 10 μM, 2 h 40 min, TMRE staining, relative to DMSO = 1.0
Protocol: A decrease in mitochondrial function can be assessed by the relative quantification of the mitochondrial transmembrane potential Δψm. The Adm-decreasing activities of compounds falling under general formula (I) were investigated with tetramethylrhodamine ethyl ester (TMRE) staining on A-549 cells. Access and cultivation method of A-549 cells are as described above. To this end, according cells were seeded into 96-well plates suitable for fluorescence assays (Greiner Bio-One, #655090) at a cell number of 45'000 cells per well. Cells were incubated over night at 37 °C and 5% CO2. This was followed by a complete medium change with 100 μL per well of fresh culture medium pre-warmed to 37 °C. Cells were further incubated at 37 °C and 5% CO2 for three hours. Then the cells were treated with compounds at 10 μM final concentration by adding 100 μL per well of a 2× compound working solution of 1:50 pre-diluted compound DMSO stock-solutions in Hank's Balanced Salt Solution (HBSS, Fisher Scientific, Gibco™ #14025). Cells were incubated for 2 hours and 40 minutes at 37 °C and 5% CO2. Then cells were treated with TMRE (AAT-Bioquest, #22220) at 300 nM final concentration by adding 20 μL per well of a 10×TMRE working solution from a 1:5 pre-diluted TMRE DMSO stock-solution in H2O (Water For Injection, WFI, Fisher Scientific, Gibco™ #A12873). Cells were incubated for further 20 minutes at room temperature in the dark, gently shaking on an orbital shaker (IKA, MTS 2/4 Digital Shaker, shaking at 300 rpm). Extracellular TMRE signal was quenched by adding 20 μL per well of a 1.6 mM solution of Brilliant Black BN (Carl Roth, #7643) in H2O. Cells were further incubated for 60 min at room temperature. Then the readout was taken with a multi-well plate-reader (Tecan Spark®) in the fluorescence mode using a filter for excitation at 535 nm (band width 25 nm) and for emission at 595 nm (band width 35 nm) without plate lid. Treatment for strong decrease in Δψm with the commercial mitochondrial uncoupler compound 2,4-dinitrophenol (DNP, Sigma Aldrich-Merck #34334) at a final concentration of 50 μM was included on every plate for assay quality control.
The assays were performed in two independent biological replicates, each containing three technical replicates for every condition. For every individual plate, the measured fluorescence intensity values of the conditions with compound treatment were normalized against the corresponding equally weighted arithmetic mean of the fluorescence intensity values of the three DMSO treated control wells in order to obtain the relative values to a reference level of 1.0.
The weighted arithmetic mean and the combined standard deviation as defined in the present invention was calculated for each compound as described above. The DNP control decreased the relative mitochondrial transmembrane potential Δψm in A-549 cells to 0.2.

A-375 cells = test: alamarBlue proliferation assay with A-375 cells; conditions: read-out: Activity on A-375: IC50, DMEM medium, 10% FBS
Excerpt: as §1, §2

NB-4 cells = test: alamarBlue proliferation assay with NB-4 cells; conditions: read-out: Activity on NB-4: IC50, RPMI 1640 medium, 10% FBS
A-549 cells = test: alamarBlue proliferation assay with A-549 cells; conditions: read-out: Activity on A-549: IC50, DMEM medium, 10% FBS
BHY cells = test: alamarBlue proliferation assay with BHY cells; conditions: read-out: Activity on BHY: IC50, DMEM medium, 10% FBS
LL/2 cells = test: alamarBlue proliferation assay with LL/2 cells; conditions: read-out: Activity on LL/2: IC50; LL/2 murine Lewis lung carcinoma cells, DMEM medium, 10% FBS
TANQUE cells = test: alamarBlue proliferation assay with TANQUE cells; conditions: read-out: Activity on TANOUE: IC50, RPMI 1640 medium, 10% FBS
HPEKp cells = test: proliferation assay with human epidermal keratinocyte progenitors (HPEKp), selectivity versus MDA-MB-231; conditions: read-out: Activity (HPEK); HPEK cells (HPEKp); antiproliferative activity, class by IC50
A-431 cells = test: alamarBlue proliferation assay with A-431 cells; conditions: read-out: Activity on A-431: IC50, DMEM medium, 10% FBS
[2] = read-out: Activity on MDA-MB-231 (IC50), glucose-free Leibovitz's L-15, 10% FBS, day 5, alamarBlue

SMILES | IC50 (HL-60 cells) | IC50 (JURKAT cells) | IC50 (MDA-MB-231 cells; [2]) | IC50 (NCI-H460 cells) | IC50 (RVH-421 cells) | IC50 (SW-948 cells) | IC50 (HCT-116 cells) | Activity: relative mitochondrial transmembrane potential Δψm [1] | IC50 (A-375 cells) | IC50 (MDA-MB-231 cells; read-out: Activity (MDA), MDA-MB-231 cells, antiproliferative activity, class by IC50) | IC50 (NB-4 cells) | IC50 (A-549 cells) | IC50 (BHY cells) | IC50 (LL/2 cells) | IC50 (TANQUE cells) | IC50 (HPEKp cells) | IC50 (A-431 cells)
COc1cc(CN2CCN(C(=O)c3ccc(Oc4ccc(C5CCC6(CC5)OCCO6)cc4C=O)cc3)CC2)cc(OC)c1 | ≤ 5 µM | ≤ 5 µM | ≤ 1 µM | ≤ 5 µM | ≤ 5 µM | ≤ 5 µM | – | – | – | – | – | – | – | – | – | – | –
O=Cc1cc(C2CCC3(CC2)OCCO3)ccc1Oc1ccc(C(=O)N2CCN(c3ccccc3)CC2)cc1 | ≤ 5 µM | ≤ 5 µM | ≤ 5 µM | ≤ 5 µM | ≤ 5 µM | ≤ 5 µM | – | – | – | – | – | – | – | – | – | – | –
O=Cc1cc(C2CCC3(CC2)OCCO3)ccc1Oc1ccc(C(=O)N2CCN(Cc3cnc4ccccc4c3)CC2)cc1 | ≤ 5 µM | ≤ 5 µM | ≤ 0.2 µM | ≤ 5 µM | ≤ 0.2 µM | ≤ 5 µM | – | – | – | – | – | – | – | – | – | – | –
O=C(c1ccc(Oc2ccc(C3CCC4(CC3)OCCO4)cc2CO)cc1)N1CCN(Cc2ccc[nH]2)CC1 | ≤ 5 µM | ≤ 5 µM | ≤ 1 µM | ≤ 5 µM | ≤ 1 µM | ≤ 5 µM | – | – | – | – | – | – | – | – | – | – | –
O=Cc1cc(C2CCC3(CC2)OCCO3)ccc1Oc1ccc(C(=O)N2CCN(Cc3ccc(S(F)(F)(F)(F)F)cc3)CC2)cc1 | ≤ 1 µM | ≤ 1 µM | ≤ 0.2 µM | ≤ 5 µM | ≤ 0.2 µM | ≤ 0.2 µM | – | – | – | – | – | – | – | – | – | – | –
COc1ccc(CN2CCN(C(=O)c3ccc(Oc4ccc(C5CCC(OC)CC5)cc4)cn3)CC2)cc1 (centres unmarked) | – | – | ≤ 0.2 µM | – | – | – | ≤ 0.2 µM | Δψm ≤0.7 | ≤ 0.2 µM | < 1 µM | ≤ 0.2 µM | ≤ 0.2 µM | ≤ 0.2 µM | ≤ 5 µM | ≤ 0.2 µM | < 10 µM | –
O=Cc1cc(C2CCC3(CC2)OCCO3)ccc1Oc1ccc(C(=O)N2CCN(Cc3ccc([N+](=O)[O-])cc3)CC2)cc1 | ≤ 5 µM | ≤ 5 µM | ≤ 0.2 µM | ≤ 5 µM | ≤ 0.2 µM | ≤ 1 µM | – | – | – | – | – | – | – | – | – | – | –
O=Cc1cc(C2CCC3(CC2)OCCO3)ccc1Oc1ccc(C(=O)N2CCN(Cc3ccc(O)cc3)CC2)cc1 | ≤ 5 µM | ≤ 1 µM | ≤ 0.2 µM | ≤ 5 µM | ≤ 0.2 µM | ≤ 1 µM | – | – | – | – | – | – | – | – | – | – | –
Cn1cccc1CN1CCN(C(=O)c2ccc(Oc3ccc(C4CCC5(CC4)OCCO5)cc3C=O)cc2)CC1 | ≤ 5 µM | ≤ 5 µM | ≤ 1 µM | ≤ 5 µM | ≤ 1 µM | ≤ 5 µM | – | – | – | – | – | – | – | – | – | – | –
O=Cc1cc(C2CCC3(CC2)OCCO3)ccc1Oc1ccc(C(=O)N2CC3(CN(Cc4ccccc4)C3)C2)cc1 | ≤ 1 µM | ≤ 1 µM | ≤ 5 µM | ≤ 5 µM | ≤ 5 µM | ≤ 20 µM | – | – | – | – | – | – | – | – | – | – | –
O=Cc1cc(C2CCC3(CC2)OCCO3)ccc1Oc1ccc(C(=O)N2CCN(Cc3ccoc3)CC2)cc1 | ≤ 1 µM | ≤ 1 µM | ≤ 0.2 µM | ≤ 5 µM | ≤ 1 µM | ≤ 5 µM | – | – | – | – | – | – | – | – | – | – | –
Cc1cc(C(=O)N2CCN(Cc3ccccc3)CC2)ccc1Oc1ccc(C2CCC3(CC2)OCCO3)cc1C=O | ≤ 20 µM | ≤ 20 µM | ≤ 5 µM | ≤ 5 µM | ≤ 5 µM | ≤ 5 µM | – | – | – | – | – | – | – | – | – | – | –
COc1cc(C2CCC(OC)CC2)ccc1Oc1ccc(C(=O)N2CCN(Cc3ccc(Cl)cc3)CC2)nc1 (centres unmarked) | – | – | – | – | – | – | ≤ 0.2 µM | Δψm ≤0.7 | ≤ 0.2 µM | – | ≤ 0.2 µM | ≤ 0.2 µM | ≤ 1 µM | ≤ 5 µM | ≤ 0.2 µM | – | ≤ 1 µM

Source: patent US20260384421A1, “NOVEL COMPOUNDS THAT CAN BE USED AS THERAPEUTIC AGENTS” (published 2026)
